40 compounds from patent publication US10189794B2, “Heteroaryl compounds and uses thereof” (Celgene CAR LLC, priority 2013, dated 2019) can be followed below.

Chains of the proteins cited; added tags and fusions are not shown. Residues count along the entry.
UniProt P22455, 460-802: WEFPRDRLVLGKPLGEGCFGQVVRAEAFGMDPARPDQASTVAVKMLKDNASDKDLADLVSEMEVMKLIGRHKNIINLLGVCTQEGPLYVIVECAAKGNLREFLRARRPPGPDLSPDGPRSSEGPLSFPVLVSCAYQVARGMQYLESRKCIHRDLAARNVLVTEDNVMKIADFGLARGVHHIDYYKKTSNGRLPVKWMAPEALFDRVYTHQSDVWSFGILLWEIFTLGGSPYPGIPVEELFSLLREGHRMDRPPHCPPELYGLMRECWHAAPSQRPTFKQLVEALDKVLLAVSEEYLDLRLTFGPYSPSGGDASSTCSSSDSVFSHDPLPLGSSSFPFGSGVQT

The target in the first test is FGFR4 intact protein (Homo sapiens (Human), UniProt P22455). The conditions noted are these: method a (SignalChem FGFR4); 10-fold excess of compound, 60 min.
With `COc1cc(OC)c(Cl)c(N2Cc3cnc(Nc4ccccc4)nc3N(C)C2=O)c1Cl` [I-238], the “MS FGFR4 (mass modification)” value is given as “G (mass modification ≤30%)”.
Regarding `C=CC(=O)Nc1ccccc1Nc1ncc2c(n1)N(Cc1ccc(Cl)c(OC)c1)C(=O)N(c1c(Cl)c(OC)cc(OC)c1Cl)C2` [I-24], the “MS FGFR4 (mass modification)” value is “E (mass modification of ≥70%)”.
Take `C=CC(=O)NC1CCCCC1Nc1ncc2c(n1)N(CC#N)C(=O)N(c1c(Cl)c(OC)cc(OC)c1Cl)C2` (racemic) [I-47]: the “MS FGFR4 (mass modification)” value was “E (mass modification of ≥70%)”.
As to `C=CC(=O)Nc1ccccc1Nc1ncc2c(n1)N(Cc1ccc(F)cc1)C(=O)N(c1c(Cl)c(OC)cc(OC)c1Cl)C2` [I-25], the “MS FGFR4 (mass modification)” value was “E (mass modification of ≥70%)”.
For `C=CC(=O)Nc1cc(N2CCN(C(C)=O)CC2)ccc1Nc1ccc2c(c1)N(C)C(=O)N(c1cc(OC)cc(OC)c1)C2` [I-55], the “MS FGFR4 (mass modification)” value was “F (mass modification of 31-69%)”.
Consider `C=CC(=O)NC1CCCCC1Nc1ncc2c(n1)N(C)C(=O)N(c1c(Cl)c(OC)cc(OC)c1Cl)C2` (racemic) [I-19], for which the “MS FGFR4 (mass modification)” value is recorded as “E (mass modification of ≥70%)”.
In the case of `C=CC(=O)Nc1ccccc1Nc1ncc2c(n1)N(Cc1cccc(F)c1)C(=O)N(c1c(Cl)c(OC)cc(OC)c1Cl)C2` [I-12], the “MS FGFR4 (mass modification)” value was “E (mass modification of ≥70%)”.
Take `C=CC(=O)Nc1cc(N2CCOCC2)ccc1Nc1ncc2c(n1)N(C)C(=O)N(c1cc(OC)cc(OC)c1)C2` [I-17]: the “MS FGFR4 (mass modification)” value is on record as “E (mass modification of ≥70%)”.
On the same count and under the same terms, then `C=CC(=O)Nc1ccccc1Nc1ncc2c(n1)N(C)C(=O)N(c1cc(OC)cc(OC)c1)C2` [I-5], with “E (mass modification of ≥70%)”.
As to `C=CC(=O)Nc1ccc(C)cc1Nc1ncc2c(n1)N(C)C(=O)N(c1cc(OC)cc(OC)c1)C2` [I-49], the “MS FGFR4 (mass modification)” value was “E (mass modification of ≥70%)”.
The same measure, in the same setting: then `C=CC(=O)Nc1ccccc1Nc1ncc2c(n1)N(C)C(=O)N(c1ccccc1)C2` [I-38], with “E (mass modification of ≥70%)”; and `C=CC(=O)Nc1ccccc1Nc1ncc2c(n1)N(C)C(=O)N(c1c(Cl)c(OC)cc(OC)c1Cl)C2` [I-2], with “E (mass modification of ≥70%)”; and `C=CC(=O)Nc1cc(N2CCN(CC)CC2)ccc1Nc1ncc2c(n1)N(C)C(=O)N(c1cc(OC)cc(OC)c1)C2` [I-15], with “E (mass modification of ≥70%)”.
In the case of `C=CC(=O)Nc1ccccc1Nc1ncc2c(n1)N(Cc1cccc(NC(=O)CC)c1)C(=O)N(c1c(Cl)c(OC)cc(OC)c1Cl)C2` [I-1], the “MS FGFR4 (mass modification)” value was “E (mass modification of ≥70%)”.
In the case of `C=CC(=O)Nc1cc(C(F)(F)F)ccc1Nc1ncc2c(n1)N(Cc1ccccc1)C(=O)N(c1c(Cl)c(OC)cc(OC)c1Cl)C2` [I-10], the “MS FGFR4 (mass modification)” value is “G (mass modification ≤30%)”.
For `C=CC(=O)Nc1cccc(Nc2ncc3c(n2)N(Cc2cccc(NC(=O)CC)c2)C(=O)N(c2c(Cl)c(OC)cc(OC)c2Cl)C3)c1` [I-232], the “MS FGFR4 (mass modification)” value is “G (mass modification ≤30%)”.
In the case of `C=CC(=O)NCc1ccccc1Nc1ncc2c(n1)N(C)C(=O)N(c1c(Cl)c(OC)cc(OC)c1Cl)C2` [I-181], the “MS FGFR4 (mass modification)” value was “E (mass modification of ≥70%)”.
Consider `C=CC(=O)Nc1cc(OCCOC)ccc1Nc1ncc2c(n1)N(Cc1ccccc1)C(=O)N(c1cc(OC)cc(OC)c1)C2` [I-14], for which the “MS FGFR4 (mass modification)” value is “E (mass modification of ≥70%)”.
As for `C=CC(=O)Nc1ccccc1Nc1ncc2cc(-c3cc(OC)cc(OC)c3)c(N)nc2n1` [I-155], the “MS FGFR4 (mass modification)” value is listed as “E (mass modification of ≥70%)”.
With `C=CC(=O)Nc1ccc(C(F)(F)F)cc1Nc1ncc2c(n1)N(C)C(=O)N(c1cc(OC)cc(OC)c1)C2` [I-50], the “MS FGFR4 (mass modification)” value is “E (mass modification of ≥70%)”.
For `C=CC(=O)Nc1cc(N2CCCCC2)ccc1Nc1ncc2c(n1)N(C)C(=O)N(c1cc(OC)cc(OC)c1)C2` [I-31], the “MS FGFR4 (mass modification)” value was “E (mass modification of ≥70%)”.
On the same count and under the same terms, the entry for `C=CC(=O)Nc1ccccc1Nc1ncc2c(n1)N(CC#N)C(=O)N(c1cc(OC)cc(OC)c1)C2` [I-48] is “E (mass modification of ≥70%)”.
The same measure, in the same setting: the entry for `C=CC(=O)Nc1ccccc1Nc1ncc2c(n1)N(C1CC1)C(=O)N(c1c(Cl)c(OC)cc(OC)c1Cl)C2` [I-23] is “E (mass modification of ≥70%)”; for `CCC(=O)Nc1ccccc1Nc1ncc2c(n1)N(Cc1ccccc1)C(=O)N(c1c(Cl)c(OC)cc(OC)c1Cl)C2` [I-236] it is “G (mass modification ≤30%)”; for `C=CC(=O)NC1CCCCC1Nc1ncc2c(n1)N(Cc1cccc(NC(=O)CC)c1)C(=O)N(c1c(Cl)c(OC)cc(OC)c1Cl)C2` (racemic) [I-8] it is “F (mass modification of 31-69%)”.
`C=CC(=O)NCc1ccccc1Nc1ncc2c(n1)N(Cc1cccc(NC(=O)CC)c1)C(=O)N(c1c(Cl)c(OC)cc(OC)c1Cl)C2` [I-179]: the “MS FGFR4 (mass modification)” value is “E (mass modification of ≥70%)”.
On to `C=CC(=O)Nc1ccccc1Nc1ncc2c(n1)N(C1CC1)C(=O)N(c1cc(OC)cc(OC)c1)C2` [I-34], for which the “MS FGFR4 (mass modification)” value is “E (mass modification of ≥70%)”.
`C=CC(=O)NC1CCCCC1Nc1ncc2c(n1)N(Cc1cccnc1)C(=O)N(c1c(Cl)c(OC)cc(OC)c1Cl)C2` (racemic) [I-35]: the “MS FGFR4 (mass modification)” value is listed as “E (mass modification of ≥70%)”.
Same read-out and setting: the entry for `C=CC(=O)NC1CCCCC1Nc1ncc2c(n1)N(C1CCCNC1)C(=O)N(c1cc(OC)cc(OC)c1)C2` (racemic) [I-46] is “G (mass modification ≤30%)”; for `COc1cc(OC)cc(N2Cc3cnc(Nc4ccccc4)nc3N(C)C2=O)c1` [I-237] it is “G (mass modification ≤30%)”; for `C=CC(=O)Nc1ccccc1Nc1ncc2c(n1)N(Cc1cccc(N)c1)C(=O)N(c1c(Cl)c(OC)cc(OC)c1Cl)C2` [I-26] it is “E (mass modification of ≥70%)”.
As to `C=CC(=O)Nc1ccc(Nc2ncc3c(n2)N(Cc2cccc(NC(=O)CC)c2)C(=O)N(c2c(Cl)c(OC)cc(OC)c2Cl)C3)cc1` [I-233], the “MS FGFR4 (mass modification)” value is “G (mass modification ≤30%)”.
Take `C=CC(=O)Nc1cc(N(C)CCOC)ccc1Nc1ncc2c(n1)N(Cc1ccccc1)C(=O)N(c1cc(OC)cc(OC)c1)C2` [I-13]: the “MS FGFR4 (mass modification)” value was “E (mass modification of ≥70%)”.

Still in this test, the particulars now being: method b (Invitrogen FGFR4); 10-fold excess of compound, 60 min.
With `C=CC(=O)Nc1ccccc1Nc1ncc2c(n1)N(C1CCCNC1)C(=O)N(c1cc(OC)cc(OC)c1)C2` (stereo not shown) [I-43], the “MS FGFR4 (mass modification)” value is given as “E (mass modification of ≥70%)”.
In the case of `C=CC(=O)N[C@@H]1CCCC[C@@H]1Nc1ncc2c(n1)N(Cc1ccccc1)C(=O)N(c1c(Cl)c(OC)cc(OC)c1Cl)C2` [I-66], the “MS FGFR4 (mass modification)” value is “G (mass modification ≤30%)”.
On the same count and under the same terms, the entry for `C=CC(=O)Nc1ccccc1Nc1ncc2c(n1)N(C)C(=O)N(c1c(Cl)cccc1Cl)C2` [I-83] is “E (mass modification of ≥70%)”; for `C=CC(=O)NC1CCCCC1Nc1ncc2c(n1)N(Cc1cscn1)C(=O)N(c1c(Cl)c(OC)cc(OC)c1Cl)C2` (racemic) [I-69] it is “E (mass modification of ≥70%)”; for `C=CC(=O)Nc1ccccc1Nc1ncc2c(n1)N(Cc1cccnc1)C(=O)N(c1cc(OC)cc(OC)c1)C2` [I-44] it is “E (mass modification of ≥70%)”.
Consider `C=CC(=O)Nc1nn(C)cc1Nc1ncc2c(n1)N(C)C(=O)N(c1c(Cl)c(OC)cc(OC)c1Cl)C2` [I-117], for which the “MS FGFR4 (mass modification)” value is “E (mass modification of ≥70%)”.
With `C=CC(=O)Nc1ccccc1Nc1ncc2c(n1)N(Cc1cscn1)C(=O)N(c1cc(OC)cc(OC)c1)C2` [I-64], the “MS FGFR4 (mass modification)” value is “E (mass modification of ≥70%)”.
